{
  "source": "paper PMC5819781",
  "about": "“A generic HTS assay for kinase screening: Validation for the isolation of an engineered malate kinase” (PLoS ONE, 2018)",
  "molecules": {"B1": {"name": "aspartate kinase III (LysC) (Escherichia coli K-12) (protein)", "chain": "SEIVVSKFGGTSVADFDAMNRSADIVLSDANVRLVVLSASAGITNLLVALAEGLEPGERFEKLDAIRNIQFAILERLRYPNVIREEIERLLENITVLAEAAALATSPALTDELVSHGELMSTLLFVEILRERDVQAQWFDVRKVMRTNDRFGRAEPDIAALAELAALQLLPRLNEGLVITQGFIGSENKGRTTTLGRGGSDYTAALLAEALHASRVDIWTDVPGIYTTDPRVVSAAKRIDEIAFAEAAEMATFGAKVLHPATLLPAVRSDIPVFVGSSKDPRAGGTLVCNKTENPPLFRALALRRNQTLLTLHSLNMLHSRGFLAEVFGILARHNISVDLITTSEVSVALTLDTTGSTSTGDTLLTQSLLMELSALCRVEVEEGLALVALIGNDLSKACGVGKEVFGVLEPFNIRMICYGASSHNLCFLVPGEDAEQVVQKLHSNLFE"}},
  "key": {"[1]": {"target": "aspartate kinase III (LysC) (Escherichia coli, UniProt P08660, V115A/E119S/E434V)"}, "O=C(O)CC(O)C(=O)O": {"system": "O=C(O)CC(O)C(=O)O", "experiment": "purified protein", "details": "ATP, Mg2+ active site (substrate pocket)"}, "[2]": {"system": "Nc1ncnc2c1ncn2[C@@H]1O[C@H](COP(=O)(O)OP(=O)(O)OP(=O)(O)O)[C@@H](O)[C@H]1O", "experiment": "purified protein", "details": "Mg2+"}, "purified protein": {"substrate": "Nc1ncnc2c1ncn2[C@@H]1O[C@H](COP(=O)(O)OP(=O)(O)OP(=O)(O)O)[C@@H](O)[C@H]1O", "experiment": "purified protein", "details": "Mg2+", "remark": "listed apart in the source"}, "[3]": {"details": "Ser39 and Thr45 side-chains to the 2-OH group in the model"}},
  "data": [
    {"molecule": "O=C(O)CC(O)C(=O)O", "note": "(centres unmarked) [(L)-malate]", "values": [
      {"measurement": "ADP/NAD+ acid/alkali end-point kinase assay on crude extracts of the isolated cl", "setting": "[1]", "value": "the best mutant, LysC V115A:E119S:E434V exhibited strong substrate selectivity for (L)-malate compared to (L)-aspartate"}
    ]},
    {"molecule": "aspartate kinase III (LysC) (Escherichia coli K-12; E119C/V115A)", "values": [
      {"measurement": "Km", "setting": "O=C(O)CC(O)C(=O)O", "value": 10290, "unit": "µM"},
      {"measurement": "kcat", "setting": "O=C(O)CC(O)C(=O)O", "value": 5.5, "unit": "s⁻¹"},
      {"measurement": "kcat/Km", "setting": "O=C(O)CC(O)C(=O)O", "value": 530, "unit": "M⁻¹ s⁻¹"},
      {"measurement": "Km", "setting": "[2]", "value": 350, "unit": "µM"}
    ]},
    {"molecule": "aspartate kinase III (LysC) (Escherichia coli K-12; E119S/E434V)", "values": [
      {"measurement": "Km", "setting": "O=C(O)CC(O)C(=O)O", "value": 13110, "unit": "µM"},
      {"measurement": "kcat", "setting": "O=C(O)CC(O)C(=O)O", "value": 1.59, "unit": "s⁻¹"},
      {"measurement": "kcat/Km", "setting": "O=C(O)CC(O)C(=O)O", "value": 120, "unit": "M⁻¹ s⁻¹"}
    ]},
    {"molecule": "aspartate kinase III (LysC) (Escherichia coli K-12; E119S/E434V/V115A)", "values": [
      {"measurement": "Km", "setting": "[2]", "value": 670, "unit": "µM"}
    ]},
    {"molecule": "aspartate kinase III (LysC) (Escherichia coli K-12; E119S/V115A)", "values": [
      {"measurement": "Km", "setting": "O=C(O)CC(O)C(=O)O; [3]", "value": 9500, "unit": "µM"},
      {"measurement": "kcat", "setting": "O=C(O)CC(O)C(=O)O; [3]", "value": 4.96, "unit": "s⁻¹"},
      {"measurement": "kcat/Km", "setting": "O=C(O)CC(O)C(=O)O; [3]", "value": 520, "unit": "M⁻¹ s⁻¹"},
      {"measurement": "Km", "setting": "[2]", "value": 410, "unit": "µM"}
    ]},
    {"molecule": "B1", "values": [
      {"measurement": "Km", "setting": "purified protein", "value": 330, "unit": "µM"}
    ]}
  ]
}
